Assay results: PubChem BioAssay AID687016 (The Scripps Research Institute Molecular Screening Center, 2013)
This is a selection; strong and weak results do not stand in their true shares. Some structures show a salt or complex split into parts, the way the source records it. The source made the active and inactive calls. No stated cut-off is given here; in the data, active means inhibition above about 21%; inactive means the rest.

Amino acid sequences for entries named in this document (tags omitted).
UniProt Q96T88, whole entry: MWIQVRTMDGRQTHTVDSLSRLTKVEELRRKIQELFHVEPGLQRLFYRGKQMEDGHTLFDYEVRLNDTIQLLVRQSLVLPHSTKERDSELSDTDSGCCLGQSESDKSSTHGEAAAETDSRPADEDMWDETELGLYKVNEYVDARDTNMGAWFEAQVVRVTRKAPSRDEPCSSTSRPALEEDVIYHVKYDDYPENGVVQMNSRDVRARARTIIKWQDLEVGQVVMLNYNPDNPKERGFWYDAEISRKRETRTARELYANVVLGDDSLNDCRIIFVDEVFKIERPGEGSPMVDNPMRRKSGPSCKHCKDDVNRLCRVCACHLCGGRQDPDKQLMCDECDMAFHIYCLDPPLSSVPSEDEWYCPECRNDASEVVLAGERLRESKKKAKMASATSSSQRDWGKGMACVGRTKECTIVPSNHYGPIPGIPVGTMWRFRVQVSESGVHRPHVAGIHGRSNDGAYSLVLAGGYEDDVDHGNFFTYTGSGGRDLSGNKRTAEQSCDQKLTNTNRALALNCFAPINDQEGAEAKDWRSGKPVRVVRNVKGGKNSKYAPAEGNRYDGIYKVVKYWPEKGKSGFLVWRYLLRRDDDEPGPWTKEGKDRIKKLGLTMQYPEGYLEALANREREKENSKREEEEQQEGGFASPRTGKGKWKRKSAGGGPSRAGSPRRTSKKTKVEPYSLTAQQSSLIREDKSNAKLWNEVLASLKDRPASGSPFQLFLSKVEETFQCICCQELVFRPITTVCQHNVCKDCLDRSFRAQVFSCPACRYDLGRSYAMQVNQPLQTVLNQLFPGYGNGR

Each compound was assayed against E3 ubiquitin-protein ligase UHRF1 (Homo sapiens) (UniProt Q96T88) (assay: UHRF1 methylated DNA binding inhibitors, primary screen, counter-screen for MBD2 inhibitor project, biochemical, TR-FRET, human UHRF1, single concentration (AID 687016;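 further: UHRF1 SRA domain binding a hemimethylated CpG hairpin DNA probe; 0% = median of test compound wells and 100% = reference inhibitor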)). Conditions: UHRF1 binding to methylated oligo, at 4.4 µM, hits give high values.

Structure (SMILES)	inhibition
Cc1ccccc1NP(C)(=O)Nc1ccccc1C	inactive: -1.35%
O=[N+]([O-])c1cc([N+](=O)[O-])c(C(F)(F)F)c([N+](=O)[O-])c1O	inactive: 1.83%
CP(=O)(Nc1ccc2c(c1)OCCO2)Oc1ccccc1 (configuration not stated)	inactive: -2.2%
CCOP(C)(=S)SCC(=O)NC(C)(CC)C(=O)O (configuration not stated)	inactive: -2.39%
CCOP(=O)(CC)OCC	inactive: 3.17%
CP(=O)(Nc1ccc(SC(F)(F)F)cc1)Oc1ccc(F)cc1 (configuration not stated)	inactive: 1.36%
Cc1c(C(c2ccc3c(c2)OCO3)c2c(C)n(C)n(-c3ccccc3)c2=O)c(=O)n(-c2ccccc2)n1C.O=[N+]([O-])c1cc([N+](=O)[O-])c(O)c([N+](=O)[O-])c1	inactive: 2.05%
O=[N+]([O-])c1ccc(OP2(=O)COCCO2)cc1 (configuration not stated)	inactive: -0.78%
O=[N+]([O-])c1cc([N+](=O)[O-])c(NCC2CCS(=O)(=O)C2)c([N+](=O)[O-])c1 (configuration not stated)	inactive: 0.04%
Cc1cc(-c2cccc3ccccc23)c(C)cn1.O=[N+]([O-])c1cc([N+](=O)[O-])c(O)c([N+](=O)[O-])c1	inactive: -2.27%
CN(C)CCOC(=O)C(O)(c1ccccc1)C1CCCCC1 (configuration not stated)	inactive: 6.73%
COc1ccc(NP(C)(=O)Oc2ccccc2OC)cc1 (configuration not stated)	inactive: -2.22%
COc1ccc(OP(C)(=O)Nc2cccc(Br)c2)cc1 (configuration not stated)	inactive: 2.53%
CP(=O)(Nc1ccccc1)Oc1ccc(F)cc1 (configuration not stated)	inactive: -0.62%
CCCCCOc1ccc(NP(C)(=O)Oc2ccc(Cl)cc2Cl)cc1 (configuration not stated)	inactive: -0.25%
O=[N+]([O-])c1cc([N+](=O)[O-])c(OC2CCCCC2O)c([N+](=O)[O-])c1 (configuration not stated)	inactive: -2.44%
Cc1c([N+](=O)[O-])cc([N+](=O)[O-])c(Br)c1[N+](=O)[O-]	inactive: 0.4%
CCN(CC)CCCOC(=O)C(O)(c1ccccc1)C1CCCCC1 (configuration not stated)	inactive: 7.04%
CCOC(=O)c1ccc(NP(C)(=O)Oc2ccc(F)cc2)cc1 (configuration not stated)	inactive: 2.19%
COc1ccc(OP(C)(=O)Nc2ccc(SC(F)(F)F)cc2)cc1 (configuration not stated)	inactive: 0.98%
CCN(CC)CCCNc1ccccc1[N+](=O)[O-].O=[N+]([O-])c1cc([N+](=O)[O-])c(O)c([N+](=O)[O-])c1	inactive: -10.4%
COc1ccc2c(c1O)-c1c(O)c(OC)cc3c1[C@H](C2)[N+](C)(C)CC3.O=[N+]([O-])c1cc([N+](=O)[O-])c([O-])c([N+](=O)[O-])c1[O-]	inactive: -0.12%
